Reference: patent US20240352073A1, “BICYCLIC PEPTIDE INHIBITORS OF INTERLEUKIN-23 RECEPTOR” (Janssen Biotech, Inc., priority 2021, published 2024)

These compounds were tested against T1, IL-23R (Homo sapiens, UniProt Q5VWK5) (assay: IL-23R reporter assay (HEK293, STAT-inducible luciferase)). Details: HEK293 cells containing IL-23R, IL-12Rβ1 and STAT-inducible luciferase reporter; 20 ng/mL IL-23 (EC90); 5 h.
T1 construct: host or cells: HEK293
T1 sequence (Q5VWK5 24-629): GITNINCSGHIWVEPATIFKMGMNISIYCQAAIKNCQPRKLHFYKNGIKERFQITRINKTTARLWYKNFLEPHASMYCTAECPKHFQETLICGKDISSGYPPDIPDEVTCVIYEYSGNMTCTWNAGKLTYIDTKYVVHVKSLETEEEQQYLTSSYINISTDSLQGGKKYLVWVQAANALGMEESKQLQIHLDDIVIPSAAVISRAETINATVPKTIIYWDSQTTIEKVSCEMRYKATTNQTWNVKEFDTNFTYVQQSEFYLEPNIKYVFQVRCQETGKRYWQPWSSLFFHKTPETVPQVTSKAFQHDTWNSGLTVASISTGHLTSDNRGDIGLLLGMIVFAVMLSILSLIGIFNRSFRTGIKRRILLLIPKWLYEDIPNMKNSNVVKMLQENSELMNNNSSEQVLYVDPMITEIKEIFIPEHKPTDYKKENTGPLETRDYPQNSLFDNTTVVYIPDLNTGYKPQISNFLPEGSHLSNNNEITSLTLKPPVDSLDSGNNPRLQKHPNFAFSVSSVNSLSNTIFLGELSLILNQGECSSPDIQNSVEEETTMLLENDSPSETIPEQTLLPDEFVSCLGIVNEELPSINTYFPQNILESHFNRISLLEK
Assay type: cell-based
Description: Example 4. IL-23R Reporter Assay
Compounds were serially diluted in 100% (v/v) DMSO) and plated using an Echo acoustic dispenser (Labcyte) into 1536-well non-treated black assay plates (Corning #9146). 3 μL of HEK293 cells containing IL-23R, IL-12Rβ1 and a firefly luciferase reporter gene driven by a STAT-inducible promoter (Promega) were added to the plates (4000 cells/well), followed by 3 μL of 20 ng/mL IL-23 (equivalent to EC90 concentration). After 5 h at 37° C., 5% CO2, 95% relative humidity, cells were placed at 20° C. and treated with BioGlo reagent (Promega) according to the manufacturer's instructions. Luminescence was measured on a Pherastar FSX (BMG LabTech). Data were normalized to IL-23 treatment (0% inhibition) and 30 μM of control inhibitor (100% inhibition), and IC50 values were determined using a 4-parameter Hill equation. Where multiple measurements have been made the average is shown with the number of replicates indicated in parenthesis following the IC50 values.

Compared with “MeCO-Pen(3)-E(2)-T-7MeW-K(NMeAc)-Pen(3)-AEF(2)-2Nal-THP-K(NMeAc)-N-3Pya-Sar-CONH2 [Example 217]”, “MeCO-Pen(3)-E(2)-T-7MeW-K(NMeAc)-Pen(3)-AEF(2)-2Nal-THP-K(NMeAc)-N-3Pya-Sar-CONHMe [Example 216]” is 8.1-fold higher in IC50: 31 nM for the first, 250 nM for the second. The first is the more potent here.

“MeCO-Pen(3)-N-T-7MeW-S5H(4)-Pen(3)-AEF-2Nal-S5H(4)-K(Ac)-N-3Pya-Sar-CONH2 [Example 205]” and “MeCO-R5H(4)-Pen(3)-N-T-7MeW-K(Ac)-Pen(3)-AEF-2Nal-aMeK-S5H(4)-N-3Pya-Sar-CONH2 [Example 203]” are within 1.5-fold of each other in IC50: 7.6 nM for the first, 8.8 nM for the second.

“MeCO-R5H(4)-Pen(3)-N-T-7MeW-K(Ac)-Pen(3)-AEF-2Nal-aMeK-S5H(4)-N-3Pya-Sar-CONH2 [Example 204]” and “MeCO-R5H(4)-Pen(3)-Q-T-W-Q-Pen(3)-AEF-2Nal-THP-S5H(4)-N-3Pya-Sar-CONH2 [Example 215]” are within 1.5-fold of each other in IC50: 15 nM for the first, 19 nM for the second.

First: MeCO-R7H(4)-Pen(3)-N-T-7MeW-K(Ac)-Pen(3)-AEF-2Nal-THP-S5H(4)-N-3Pya-Sar-CONH2 [Example 209]
Second: MeCO-lys(2)-Pen(3)-Q-T-W-Q-Pen(3)-AEF-2Nal-THP-E(2)-N-3Pya-Sar-CONH2 [Example 214]
The IC50 of the first is 44-fold lower: 2.7 nM for the first, 120 nM for the second.

Same assay, conditions: Table 4; HEK293 cells with IL-23R, IL-12Rβ1 and STAT-inducible luciferase reporter, stimulated with IL-23

Compared with “5Ava(2)-Abu(1)-N-T-W-K(PEG2PEG2gEC18OH)-C(1)-AEF-2Nal-THP-E(2)-N-3Pya-Sar-CONH2 [Example 249]”, “5Ava(2)-Abu(1)-N-T-W-Q-C(1)-AEF-2Nal-THP-E(2)-N-3MeH-Sar-CONH2 [Example 253]” is lower in IC50: over 16600 nM for the first, 270 nM for the second. The second is the more potent here.

Going from “5cpaCO-Pen(3)-E(2)-T-7MeW-K(Ac)-Pen(3)-AEF(2)-2Nal-THP-E-N-3Pya-Sar-CONH2 [Example 229]” to “5cpaCO-k(2)-Pen(3)-N-T-7MeW-K(Ac)-Pen(3)-AEF-2Nal-THP-hE(2)-N-3Pya-Sar-CONH2 [Example 230]”, the IC50 rises from 290 nM to 2320 nM (8-fold). The first is the more potent here.

“6Ahx(2)-Abu(1)-N-T-W-Q-C(1)-AEF-2Nal-THP-E(2)-N-3Pya-NMeK(PEG2PEG2gEC18OH)-CONH2 [Example 252]” and “AEEP(2)-Pen(3)-K(PEG2PEG2gEC18OH)-T-7MeW-K(Ac)-Pen(3)-AEF-2Nal-THP-E(2)-N-3Pya-Sar-CONH2 [Example 262]” are within 1.5-fold of each other in IC50: 2.8 nM for the first, 2.9 nM for the second.

Compared with “AEEP(2)-Pen(3)-N-T-7MeW-K(Ac)-Pen(3)-AEF-2Nal-THP-E(2)-N-3Pya-Sar-CONH2 [Example 247]”, “AEEP(2)-Pen(3)-N-T-7MeW-K(Ac)-Pen(3)-AEF-2Nal-THP-E(2)-N-3Pya-Sar-K(PEG2PEG2gEC18OH)-CONH2 [Example 254]” is 12-fold lower in IC50: 3560 nM for the first, 290 nM for the second.

Going from “AEEP(2)-Pen(3)-N-T-7MeW-K(PEG2PEG2gEC18OH)-Pen(3)-AEF-2Nal-THP-E(2)-N-3Pya-Sar-CONH2 [Example 261]” to “CF3CO-Pen(3)-E(2)-T-7MeW-K(Me)3-Pen(3)-AEF(NMe)(2)-2Nal-THP-K(Me)3-N-3Pya-Sar-CON(Me)2 [Example 225]”, the IC50 rises from 200 nM to over 16600 nM. The first is the more potent here.

“CF3CO-Pen(3)-E(2)-T-7MeW-Q(N(Me)2)-Pen(3)-AEF(2)-2Nal-THP-Q(N(Me)2)-N-3Pya-Sar-CON(Me)2 [Example 222]” and “CF3CO-Pen(3)-E(2)-T-7MeW-Q(N(Me)2)-Pen(3)-AEF(NMe)(2)-2Nal-THP-Q(N(Me)2)-N-3Pya-Sar-CON(Me)2 [Example 219]” cannot be ordered by IC50: over 16600 nM for the first, over 16600 nM for the second.

Compared with “GABA(2)-k(PEG2PEG2gEC18OH)-Pen(3)-N-T-7MeW-K(Ac)-Pen(3)-AEF-2Nal-THP-E(2)-N-3Pya-Sar-CONH2 [Example 248]”, “GABA(2)-r-Pen(3)-Q-T-W-Q-Pen(3)-AEF-2Nal-THP-E(2)-N-THP-CONH2 [Example 266]” is lower in IC50: over 16600 nM for the first, 1.5 nM for the second. The second is the more potent here.

“MeCO-E(2)-Pen(3)-N-T-7MeW-K(Ac)-Pen(3)-AEF-2Nal-THP-K(Ac)-N-3Pya-dK(2)-CONH2 [Example 233]” and “MeCO-GLU(2)-Pen(3)-N-T-7MeW-K(Ac)-Pen(3)-AEF(2)-2Nal-THP-K(Ac)-N-3Pya-Sar-CONH2 [Example 228]” cannot be ordered by IC50: over 16600 nM for the first, over 16600 nM for the second.

Going from “MeCO-Pen(3)-E(2)-T-7MeW-K(Ac)-Pen(3)-AEF(2)-2Nal-THP-E-N-3Pya-Sar-CONH2 [Example 268]” to “MeCO-Pen(3)-E(2)-T-7MeW-K(Ac)-Pen(3)-AEF(NMe)(2)-2Nal-THP-K(Ac)-N-3Pya-Sar-CONH2 [Example 218]”, the IC50 rises from 9.6 nM to over 16600 nM. The first is the more potent here.

Compared with “MeCO-Pen(3)-E(2)-T-7MeW-K(Me)3-Pen(3)-AEF(NMe)(2)-2Nal-THP-K(Me)3-N-3Pya-Sar-CON(Me)2 [Example 240]”, “MeCO-Pen(3)-E(2)-T-7MeW-K(mPEG12)-Pen(3)-AEF(2)-2Nal-THP-K(Ac)-L-3Pya-Sar-CONH2 [Example 244]” is 3000-fold lower in IC50: 7720 nM for the first, 2.6 nM for the second. The second is the more potent here.

“MeCO-Pen(3)-E(2)-T-7MeW-Q(N(Me)2)-Pen(3)-AEF(NMe)(2)-2Nal-THP-Q(N(Me)2)-N-3Pya-Sar-CON(Me)2 [Example 220]” and “MeCO-Pen(3)-E(2)-T-7MeW-hK(Me)3-Pen(3)-AEF(NMe)(2)-2Nal-THP-E-N-3Pya-Sar-CON(Me)2 [Example 235]” cannot be ordered by IC50: over 16600 nM for the first, over 16600 nM for the second.

First: MeCO-Pen(3)-E(2)-T-W-K(Ac)-Pen(3)-AEF-2Nal-THP-K(Ac)-S-3Pya-Sar-CONH2 [Example 232]
Second: MeCO-Pen(3)-N-3OHPro-7MeW-S5H(4)-Pen(3)-AEF-2Nal-S5H(4)-K(Ac)-N-3Pya-CONH2 [Example 201]
The IC50 of the first is higher: over 16600 nM for the first, 3.4 nM for the second. The second is the more potent here.

First: MeCO-Pen(3)-N-T-7MeW-K(Ac)-Pen(3)-4AmF-2Nal-THP-E(2)-N-3Pya-dK(2)-CONH2 [Example 234]
Second: MeCO-R7H(4)-Pen(3)-N-T-7MeW-K(Ac)-Pen(3)-AEF-2Nal-THP-S5H(4)-N-3Pya-Sar-CONH2 [Example 209]
The IC50 of the first is 68-fold higher: 250 nM for the first, 3.7 nM for the second.

Compared with “MeCO-dab(2)-Abu(1)-Q-T-W-Q-C(1)-AEF-2Nal-THP-E(2)-N-bAla-CONH2 [Example 269]”, “PEG2(2)-Pen(3)-N-T-7MeW-K(Ac)-Pen(3)-AEF-2Nal-THP-hE(2)-N-3Pya-Sar-CONH2 [Example 227]” is 29-fold higher in IC50: 120 nM for the first, 3520 nM for the second.

First: PEG2(2)-Pen(3)-N-T-7MeW-K(NMeAc)-Pen(3)-AEF-2Nal-THP-hE(2)-N-3Pya-Sar-CONH2 [Example 243]
Second: cPEG3aCO-DLys(2)-Pen(3)-N-T-7MeW-K(NMeAc)-Pen(3)-AEF-2Nal-THP-hE(2)-N-3Pya-Sar-CONH2 [Example 242]
The IC50 of the first is lower: 2.1 nM for the first, over 16600 nM for the second.

Going from “cPEG3aCO-Pen(3)-E(2)-T-7MeW-K(Ac)-Pen(3)-AEF(2)-2Nal-THP-K(Ac)-N-3Pya-Sar-CONH2 [Example 231]” to “cPEG3aCO-Pen(3)-E(2)-T-7MeW-K(Me)3-Pen(3)-AEF(NMe)(2)-2Nal-THP-K(Me)3-N-3Pya-Sar-CON(Me)2 [Example 239]”, the IC50 rises from 170 nM to over 16600 nM. The first is the more potent here.

“cPEG3aCO-Pen(3)-E(2)-T-7MeW-K(NMeAc)-Pen(3)-AEF(2)-2Nal-THP-K(Ac)-N-3Pya-Sar-CONH2 [Example 238]” and “cPEG3aCO-Pen(3)-E(2)-T-7MeW-K(NMeAc)-Pen(3)-AEF(NMe)(2)-2Nal-THP-E-N-3Pya-Sar-CON(Me)2 [Example 236]” cannot be ordered by IC50: over 16600 nM for the first, over 16600 nM for the second.

Compared with “cPEG3aCO-Pen(3)-E(2)-T-7MeW-K(NMeAc)-Pen(3)-AEF(NMe)(2)-2Nal-THP-K(NMeAc)-N-3Pya-Sar-CON(Me)2 [Example 237]”, “cPEG3aCO-k(2)-Pen(3)-N-T-7MeW-K(Ac)-Pen(3)-AEF-2Nal-THP-hE(2)-N-3Pya-Sar-CONH2 [Example 241]” is higher in IC50: 290 nM for the first, over 16600 nM for the second. The first is the more potent here.

Same assay, conditions: Table 4; HEK293 cells with IL-23R, IL-12Rβ1 and STAT-inducible luciferase reporter, stimulated with IL-23; read-out: IC50

`CC(=O)N(C)CCCC[C@@H]1NC(=O)[C@H](Cc2c[nH]c3c(C)cccc23)NC(=O)[C@H]([C@@H](C)O)NC(=O)[C@H](CC(=O)N(C)C)NC(=O)[C@H]2NC(=O)[C@H](NC(=O)CCOCCOCC[N+](C)(C)C)CCCCNC(=O)CCC[C@@H](C(=O)N[C@@H](CC(N)=O)C(=O)N[C@@H](Cc3cccnc3)C(=O)N(C)CC(=O)N(C)C)NC(=O)C3(CCOCC3)NC(=O)[C@H](Cc3ccc4ccccc4c3)NC(=O)[C@H](Cc3ccc(OCCCCC[N+](C)(C)C)cc3)NC(=O)[C@@H](NC1=O)C(C)(C)SSC2(C)C` [Compd 319] gave an IC50 of 2.8 nM.
